Data published in paper PMC11817943.

Target: full-length human VARP with a C-terminal 10xHis tag (human) (UniProt Q96NW4)
Assay: BLI; His-tagged VARP FL (0.05 mg/ml) on a Ni-NTA biosensor; SNX27 FL (0.5-4.0 μM) or Retromer (0.25-2.0 μM) in solution; 10 mM tris pH 8.0, 150 mM NaCl, 0.1% BSA; triplicate

- Kd: 70 nM
- stoichiometry N (Retromer per VARP): 2
Substance: Retromer heterotrimer (VPS26/VPS35/VPS29) (from UniProt O75436 1-327; Q96QK1 1-796; Q9UBQ0 1-182) (complex; other documents disagree on this pair)
